Tests used:
CDK1:CCNB1 = CDK1:CCNB1 (Homo sapiens (Human), UniProt P06493); experiment: NanoBRET assay in MCF-7 cells, CDK1; assay type: cell-based; settings: read-out: CDK1 IC50, transfected MCF-7 cells, 2 hours, n = 1 or average
CDK4:CCND1 = CDK4:CCND1 (Homo sapiens (Human), UniProt P11802); experiment: NanoBRET assay in MCF-7 cells, CDK4; assay type: cell-based; settings: read-out: CDK4 IC50, transfected MCF-7 cells, 2 hours, n = 1 or average
[1] = test system: POLR2A Ser2 phosphorylation (CDK9); experiment: POLR2A Ser2 phosphorylation imaging assay in MCF-7 cells; assay type: cell-based; settings: read-out: POLR2A Ser2 phosphorylation IC50, 2 hours
MCF-7 cells = experiment: Cellular proliferation EdU assay, MCF-7; assay type: cell-based; settings: read-out: MCF-7 IC50, two days
OVCAR3 cells = experiment: Cellular proliferation EdU assay, OVCAR3; assay type: cell-based, human; settings: read-out: OVCAR3 IC50, two days
Caco-2 cells = experiment: Caco-2 cell permeability assay; assay type: in vitro ADME; settings: Papp; 10 μM, 2 hours, 37° C.
human hepatocytes = experiment: CLint assessment in human hepatocytes (HH); assay type: in vitro ADME; settings: 1 μM
[2] = Aqueous thermodynamic solubility, shake-flask; assay type: physicochemical; settings: phosphate buffer 0.1 M, pH 7.4, 24 hours, 25° C.

By UniProt entry, the sequences of proteins in these tests, tags left out.
UniProt P06493, whole entry: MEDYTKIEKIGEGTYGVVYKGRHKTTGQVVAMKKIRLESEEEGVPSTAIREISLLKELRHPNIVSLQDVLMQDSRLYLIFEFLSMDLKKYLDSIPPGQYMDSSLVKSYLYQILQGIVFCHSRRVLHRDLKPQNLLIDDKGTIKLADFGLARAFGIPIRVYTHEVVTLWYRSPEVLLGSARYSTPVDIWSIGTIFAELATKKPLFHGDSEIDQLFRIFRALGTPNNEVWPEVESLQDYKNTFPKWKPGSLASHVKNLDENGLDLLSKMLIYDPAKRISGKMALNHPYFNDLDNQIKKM
UniProt P11802, whole entry: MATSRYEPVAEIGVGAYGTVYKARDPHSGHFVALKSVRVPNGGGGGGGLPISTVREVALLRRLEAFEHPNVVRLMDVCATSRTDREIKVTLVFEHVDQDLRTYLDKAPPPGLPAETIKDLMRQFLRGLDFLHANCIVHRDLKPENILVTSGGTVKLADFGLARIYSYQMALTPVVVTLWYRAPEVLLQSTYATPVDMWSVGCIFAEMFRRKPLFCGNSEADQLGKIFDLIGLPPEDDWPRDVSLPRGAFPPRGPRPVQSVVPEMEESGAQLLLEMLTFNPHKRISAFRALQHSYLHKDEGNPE
UniProt P24385, whole entry partner: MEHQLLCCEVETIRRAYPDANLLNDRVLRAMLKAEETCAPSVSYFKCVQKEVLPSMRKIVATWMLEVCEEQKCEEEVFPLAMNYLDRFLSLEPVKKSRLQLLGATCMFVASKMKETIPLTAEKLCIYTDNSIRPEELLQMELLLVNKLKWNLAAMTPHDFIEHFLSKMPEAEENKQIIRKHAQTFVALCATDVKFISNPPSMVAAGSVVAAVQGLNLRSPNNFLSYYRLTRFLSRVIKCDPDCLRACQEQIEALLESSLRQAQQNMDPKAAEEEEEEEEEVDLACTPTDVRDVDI
UniProt P14635, whole entry partner: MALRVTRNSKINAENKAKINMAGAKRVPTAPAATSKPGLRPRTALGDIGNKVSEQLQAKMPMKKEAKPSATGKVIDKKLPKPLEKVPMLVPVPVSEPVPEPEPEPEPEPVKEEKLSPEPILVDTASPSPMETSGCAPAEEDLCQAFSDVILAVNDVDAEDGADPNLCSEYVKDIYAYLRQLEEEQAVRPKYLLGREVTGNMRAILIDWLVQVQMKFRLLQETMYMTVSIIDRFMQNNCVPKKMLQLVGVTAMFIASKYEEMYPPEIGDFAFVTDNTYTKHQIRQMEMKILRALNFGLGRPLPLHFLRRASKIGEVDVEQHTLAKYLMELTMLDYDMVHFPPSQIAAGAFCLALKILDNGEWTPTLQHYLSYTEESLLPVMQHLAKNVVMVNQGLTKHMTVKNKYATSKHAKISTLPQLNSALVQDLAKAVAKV

## CC[C@H](Nc1nc(NCc2cnc(C)cc2C)c2ncn(C(C)C)c2n1)[C@@H](C)O
CDK1:CCNB1
  IC50: 5720 nM
CDK4:CCND1
  IC50: 2600 nM
[1]
  IC50: 600 nM
MCF-7 cells
  IC50: 294 nM
OVCAR3 cells
  IC50: 316 nM
Caco-2 cells
  Caco-2 Intrinsic Permeability: 60.1 1E−6 · cm/s
Human hepatocytes
  HH CLint: 8.3 µL/min/mg
[2]
  AQUEOUS SOLUBILITY: 740 µM

From patent US20250197425A1, “2,6,9-TRISUBSTITUTED PURINES” (ASTRAZENECA AB, priority 2022, published 2025)
